From PubChem BioAssay AID1645851 (National Center for Advancing Translational Sciences (NCATS), 2021) come the findings set out here.

Amino acid sequences for entries named in this document (tags omitted). A change or cut given only in a name is not applied to a line headed by its entry.
UniProt Q92551: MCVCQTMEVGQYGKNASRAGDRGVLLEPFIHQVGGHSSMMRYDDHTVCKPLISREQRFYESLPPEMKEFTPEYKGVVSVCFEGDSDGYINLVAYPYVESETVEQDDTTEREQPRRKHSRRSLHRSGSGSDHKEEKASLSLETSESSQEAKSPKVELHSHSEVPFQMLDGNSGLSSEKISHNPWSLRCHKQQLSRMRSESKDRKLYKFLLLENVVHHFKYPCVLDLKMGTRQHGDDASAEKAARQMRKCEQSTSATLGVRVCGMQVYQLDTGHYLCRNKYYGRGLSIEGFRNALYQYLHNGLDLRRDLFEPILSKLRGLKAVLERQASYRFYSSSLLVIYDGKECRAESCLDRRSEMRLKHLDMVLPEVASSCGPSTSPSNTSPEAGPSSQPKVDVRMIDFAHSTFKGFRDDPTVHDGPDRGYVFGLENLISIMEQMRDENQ

Molecules are shown by their SMILES. This is a selection; strong and weak results do not stand in their true shares. Active and inactive are the calls of the source. No stated cut-off is given here; in the data, active means activity change below about -25%; inactive means the rest.
On the % scale 0 is the no-effect control and ±100 the full control effect.

The test deals with Inositol hexakisphosphate kinase 1 (Homo sapiens) (UniProt Q92551). The experiment in a line: Primary qHTS assay for small molecule inhibitors of Inositol hexaphosphate kinase 1 (IP6K1). Further: series mostly up to about 58 µM. Conditions: ADP-Glo luminescence, 2 h, active compounds read low. An excerpt:
Assay Provider: Huijun Wei, M.S., Ph.D. School of Medicine, Johns Hopkins University, Baltimore, MD Inositol hexakisphosphate kinases (IP6Ks) catalyze pyrophosphorylation of inositol hexakisphosphate (IP6) into inositol 5-diphospho-1,2,3,4,6-pentakisphosphate (IP7), which is involved in numerous areas of cell physiology including glucose homeostasis, blood coagulation and neurological development. Inhibition of IP6Ks may be effective for the treatment of Type II diabetes, thrombosis, and psychiatric disorders. We performed a quantitative high throughput screen (qHTS) of 158,410 compounds for IP6K1 inhibitors using ankinase activity ADP-Glo Max assay. […] Medicinal chemistry SAR efforts in three chemical series identified potent IP6K1 inhibitors, which were further validated in an orthogonal LC-MS IP7 analysis.
PROTOCOL TABLE SEQUENCE No. (e.g., 1, 2, 3, etc.); […] (e.g., Cells, Incubation, Reagent, etc.); VALUE and DESCRIPTION. 1. Reagent, 3 uL of 1.3 mM ATP and 130 uM IP6 mixture in assay buffer was dispensed to a white, 1536-well assay plate. 2. Compound, 23 nL of compounds of the top two doses (57.5 uM and 19.1 uM final concentration) of the libraries were dispensed into the mixture using the Kalypsis pintool. 3. Reagent, 1 uL of 2.4 uM IP6K1 was dispensed to the assay plates. 4. Incubation, 2 hr incubation at room temperature. 5. Reagent, 2 uL of ADP-Glo reagent was added to the wells. 6. Incubation, 1 hr incubation at room temperature. 7. Reagent, 4 uL or ADP-Glo substate was added to the wells. 8. Incubation, 45 min incubation at room temperature. 9. Detection, luminescence signal was detected using the ViewLux microplate imager (PerkinElmer).
(In general: qHTS replaces the single test concentration by a dilution series.)
Take `CNCc1cc2ccccc2o1`: the activity change was inactive: 4.36%.

Take `CN(C)C1(c2ccccc2)CCC2(CC1)OCCc1c2[nH]c2ccc(F)cc12` (stereo unspecified): the activity change is inactive: 12.5%.

`CN(C(=O)Cc1ccccc1)[C@H]1CC[C@@]2(CCCO2)C[C@@H]1N1CCCC1`: the activity change is inactive: -10.2%.

On to `Cc1cc([N+](=O)[O-])cc([N+](=O)[O-])c1O`, for which the activity change was inactive: 17.4%.

On to `CN(C(=O)Cc1ccc(Cl)c(Cl)c1)[C@H]1CCCC[C@H]1N1CCCC1`, for which the activity change is inactive: 7.72%.

For the compound `CCNC(C)Cc1ccc2c(c1)OCO2` (stereo unspecified), the activity change was inactive: 4.49%.

As to `O=C(O[C@H]1CN2CCC1CC2)C1NCc2ccccc2[C@@H]1c1ccccc1` (stereo partly specified), the activity change is inactive: -4.57%.

`CNCc1cccc(C)n1`: the activity change was inactive: 10.5%.

`CCn1c(=O)n([C@@H]2CCN(CC3CCCCCCC3)C[C@H]2CO)c2ccccc21`: the activity change is inactive: 19%.

As to `NC(=O)Nc1ccc([As](=O)(O)O)cc1`, the activity change was inactive: 8.77%.

`CN(C(=O)Cc1ccc(Cl)c(Cl)c1)[C@H]1CC[C@@]2(CCCO2)C[C@@H]1N1CCCC1`: the activity change was inactive: 12.7%.
